Measurements from PubChem BioAssay AID1362 (SRMLSC, 2008).
Only a part is listed here, and it is no random draw. Activity calls are given as the source filed them. Rule as the data show it: active = inhibition above about 58%; inactive = the rest, inconclusive results apart; tested in S. cerevisiae.

Experiment: growth inhibition of WT strain, primary screen, mitochondrial fusion inhibitor project, WT and mutant strains, chemical genetic (AID 1362)
Settings: mitochondrial fusion phenotypic screen, at 10 µM, stronger effect = higher value

SMILES | inhibition
Cc1c(NP(C)(=O)Oc2ccc(C(C)C)cc2)c(=O)n(-c2ccccc2)n1C (stereo unspecified) | inactive: 3.51%
O=[N+]([O-])c1cc([N+](=O)[O-])c(Nc2ccccn2)c([N+](=O)[O-])c1 | inactive: 22.8%
CC(C)CC(=O)NC(Sc1ccc(Cl)cc1)C(Cl)(Cl)Cl (stereo unspecified) | inactive: 31.4%
Oc1ccccc1CNc1ccccn1 | inactive: -13.8%
O=C(NC(Sc1ccncn1)C(Cl)(Cl)Cl)c1ccccc1 (stereo unspecified) | inactive: -2.56%
Cc1c2non([O-])c-2c(C)[n+](=O)[n+]1[O-] | inactive: -7.51%
CP(=O)(Nc1ccccn1)Oc1ccccc1 (stereo unspecified) | inactive: -20.6%
COc1ccccc1OP(C)(=O)Nc1ccc(C)cc1C (stereo unspecified) | inactive: 19.6%
CCc1ccc(OP(C)(=O)O)cc1 | inactive: 10.4%
NC(=O)c1cc([N+](=O)[O-])cc([N+](=O)[O-])c1N | inactive: -11.4%
Cc1ccc(N/C(=N/P(=O)(N2CCOCC2)N2CCOCC2)N2CCOCC2)cc1 | inactive: -6.7%
COc1ccccc1OP(=O)(Nc1ccc(C)cn1)Oc1ccccc1OC | inactive: 5.96%
COc1ccc(OP(C)(=O)Nc2ccccn2)cc1 (stereo unspecified) | inactive: 4.9%
CN1CCCC(OC(=O)C(c2ccccc2)c2ccccc2)C1 (stereo unspecified) | inactive: -17.5%
CN(C)CCOC(=O)C(O)(c1ccccc1)C1CCCC1 (stereo unspecified) | inactive: -5.82%
Clc1ccc(Cl)c(NC2=NCC(CBr)S2)c1 (stereo unspecified) | inactive: 5.88%
Cc1nc2ccc3ccccc3c2o1.O=[N+]([O-])c1cc([N+](=O)[O-])c(O)c([N+](=O)[O-])c1 | inactive: -3.54%
CCN(N=Nc1nonc1N)c1nonc1N | inactive: -17.8%
CP(=O)(Nc1ccc(Cl)cc1Cl)Oc1ccccc1 (stereo unspecified) | inactive: -7.07%
CP(=O)(OCCOc1ccccc1)OCCOc1ccccc1 | inactive: -19%
Cc1cc(C)cc(OP(C)(=O)Nc2cccc(C(F)(F)F)c2)c1 (stereo unspecified) | inactive: -10.4%
Cc1cc(SC(NC(=O)c2ccc(F)cc2)C(Cl)(Cl)Cl)ncn1 (stereo unspecified) | inactive: -3.5%
CCOP(=O)(Nc1ccccc1)OCC | inactive: 6.68%
COc1ccccc1OP(C)(=O)Nc1ccc(C)c(C)c1 (stereo unspecified) | inactive: -9.48%
COc1ccc(OP(C)(=O)Nc2ccccc2Br)cc1 (stereo unspecified) | inactive: 2.36%
O=[N+]([O-])c1ncn(CCn2ncnc2[N+](=O)[O-])n1 | inactive: 3.79%

SMILES | inhibition
CCOC(=O)c1ccc(NP(C)(=O)Oc2ccc(Cl)cc2)cc1 (stereo unspecified) | inactive: 8.42%
CP(=O)(OC12CC3CC(CC(C3)C1)C2)OC12CC3CC(CC(C3)C1)C2 | inactive: 57.9%
COc1ccccc1OP(C)(=O)Nc1ccccc1Br (stereo unspecified) | inactive: -4.16%
CCN(/C(=N/P(=O)(N1CCOCC1)N1CCOCC1)N1CCOCC1)c1ccc(OC)cc1 | inactive: -4.51%
CP(=O)(Nc1ccc(Cl)cc1)Oc1ccc(F)cc1 (stereo unspecified) | inactive: -9.51%
CC(C)=N/N=C(\N)N[N+](=O)[O-] | inactive: -28.3%
CN(C)C(=O)c1c([N+](=O)[O-])cc([N+](=O)[O-])cc1[N+](=O)[O-] | inactive: -13.4%
CN(C)C(=O)OCCc1n(C)cc[n+]1C | inactive: -14.8%
CC1CCN(C(=O)Oc2c(Cl)cc(Cl)c3cccnc23)CC1 | inactive: -1.91%
CCN(CC)CC(O)COC(=O)C(O)(c1ccccc1)C1CCCCC1 (stereo unspecified) | inactive: 1.68%
COc1ccc(C2=NCC(CBr)S2)cc1 (stereo unspecified) | inactive: -21.6%
COc1ccc(OP(C)(=O)Nc2ccc(Br)cc2)cc1 (stereo unspecified) | inactive: -8.22%
CC(=O)N1C2C3N(C(C)=O)C1C1N(C(C)=O)C(C(N1C(C)=O)N3C(C)=O)N2C(C)=O | inactive: 22.2%
O=[N+]([O-])c1cccc2n[nH]nc12 | inactive: -5.37%
Cc1ccc(NP(=O)(Oc2ccccc2)Oc2ccccc2)nc1 | inactive: -20%
CP(=O)(Oc1ccccc1)N1CCOC1=O (stereo unspecified) | inactive: 16.1%
CCc1ccc(OP(C)(=O)Nc2cccnc2)cc1 (stereo unspecified) | inactive: -13.3%
O=[N+]([O-])c1cc([N+](=O)[O-])c(CCNc2ccccc2)c([N+](=O)[O-])c1 | inactive: 34.1%
CCc1nc2c(n1)c1c(non1O)c1c2no[n+]1[O-] | inactive: 22%
CP(=O)(Nc1ccc2c(c1)OCCO2)Oc1ccccc1 (stereo unspecified) | inactive: -1.41%
Cc1ccccc1NP(C)(=O)Nc1ccccc1C | inactive: -3.91%
O=P(Nc1nccs1)(c1ccccc1)c1ccccc1 | inactive: -12.9%
CC(C)C(=O)NC(Sc1ccccc1)C(Cl)(Cl)Cl (stereo unspecified) | inactive: 1.03%
CCOP(C)(=S)SCC(=O)NC(C)(CC)C(=O)O (stereo unspecified) | inactive: 2.99%
c1nnnn1CCn1cnnn1 | inactive: -12.7%
CC(=O)NC(SC(=S)N(C)C)C(Cl)(Cl)Cl (stereo unspecified) | inactive: 2.58%

SMILES | inhibition
O=[N+]([O-])c1cc([N+](=O)[O-])c(NCC2CCS(=O)(=O)C2)c([N+](=O)[O-])c1 (stereo unspecified) | inactive: -2.42%
C(Cc1nn[nH]n1)Cc1nn[nH]n1 | inactive: -5.91%
O=C(OC1CN2CCC1CC2)c1cccc(Cl)c1 (stereo unspecified) | inactive: -1.31%
COc1ccc(OP(C)(=O)Nc2cccc(Br)c2)cc1 (stereo unspecified) | inactive: -23.8%
O=P(Nc1ccccn1)(c1ccc(Br)cc1)c1ccc(Br)cc1 | inactive: -1.08%
CN(C)CCOC(=O)C(O)(c1ccccc1)C1CCCCC1 (stereo unspecified) | inactive: -4.86%
COc1ccc(NP(C)(=O)Oc2ccccc2OC)cc1 (stereo unspecified) | inactive: -3.08%
COC(=O)c1cc2c(s1)N=C(c1ccccc1)N(C)P2(=O)N1CCOCC1 (stereo unspecified) | inactive: 11%
Cc1ccc(OP(=O)(Nc2ccccn2)Oc2ccc(C)cc2)cc1 | inactive: 36.2%
CCC(=O)N1C2C3N(C(=O)CC)C1C1N(C(=O)CC)C(C(N1C(=O)CC)N3C(=O)CC)N2C(=O)CC | inactive: -20.8%
CCN(CC)CCCOC(=O)C(O)(c1ccccc1)C1CCCCC1 (stereo unspecified) | inactive: -8.41%
CP(=O)(Nc1ccccc1)Oc1ccc(F)cc1 (stereo unspecified) | inactive: -12.6%
O=c1c2cc([N+](=O)[O-])ccc2[nH]c2c([N+](=O)[O-])cc([N+](=O)[O-])cc12 | inactive: 96.2%
O=C(NC1CCS(=O)(=O)C1)NP(=S)(Oc1ccccc1)Oc1ccccc1 (stereo unspecified) | inactive: -13.1%
CCNC(=S)/N=C(\N)N[N+](=O)[O-] | inactive: 5.31%
c1ccc(-c2nn[nH]n2)c(-c2nn[nH]n2)c1 | inactive: -6.5%
CCOC(=O)NC(Sc1ccccc1)C(Cl)(Cl)Cl (stereo unspecified) | inactive: 27.1%
CCOC(=O)c1ccc(NP(C)(=O)Oc2ccc(F)cc2)cc1 (stereo unspecified) | inactive: 3.21%
COc1ccc(OP(C)(=O)Nc2ccc(SC(F)(F)F)cc2)cc1 (stereo unspecified) | inactive: 33.1%
O=C(OCCN1CCN(CCOCc2ccccc2)CC1)C(O)(c1ccccc1)c1ccccc1 | inactive: -6.54%
CC(=O)Nc1ccc(Oc2c([N+](=O)[O-])cc([N+](=O)[O-])cc2[N+](=O)[O-])cc1 | inactive: 7.31%
O=P1(Nc2nc3ccc(Cl)cc3s2)COc2ccccc2O1 (stereo unspecified) | inactive: 8.77%
CCOc1ccc(C2=NCC(CBr)S2)cc1 (stereo unspecified) | inactive: 12.5%
CP(=O)(Nc1ccccc1F)Oc1ccccc1 (stereo unspecified) | inactive: -4.03%
CC(C)(C)C(=O)NC(Sc1ccccc1)C(Cl)(Cl)Cl (stereo unspecified) | inactive: 7.63%
CC(C)c1ccc(OP(C)(=O)Nc2ccc(SC(F)(F)F)cc2)cc1 (stereo unspecified) | inactive: 11.7%

SMILES | inhibition
Cc1ccc(C)c(NP(C)(=O)Oc2ccccc2)c1 (stereo unspecified) | inactive: 5.43%
Cc1cc(C)cc(OP(C)(=O)Nc2ccccn2)c1 (stereo unspecified) | inactive: -5.68%
CP(=O)(Nc1cccc(Br)c1)Oc1ccccc1 (stereo unspecified) | inactive: -28%
Cc1ccc(NCCc2c([N+](=O)[O-])cc([N+](=O)[O-])cc2[N+](=O)[O-])cc1 | inactive: 41.9%
CCOP(=O)(Nc1cccc2ccccc12)OCC | inactive: 9.27%
COc1cc(C(=O)NCC2(N3CCOCC3)CCCCC2)cc(Cl)c1OC(C)C | inactive: 10.8%
CCOC(=O)c1ccc(NP(C)(=O)Oc2cc(C)cc(C)c2)cc1 (stereo unspecified) | inactive: 3.08%
Cc1cccc(OCC(=O)OC2CN3CCC2CC3)c1 (stereo unspecified) | inactive: -1.76%
Cc1cc(C)cc(OP(C)(=O)Nc2ccc(C)cc2C)c1 (stereo unspecified) | inactive: 2.66%
O=[N+]([O-])c1ccc2c(c1)nnn2O | inactive: -12.4%
CC1=NCCc2c1[nH]c1ccccc21.O=[N+]([O-])c1cc([N+](=O)[O-])c(O)c([N+](=O)[O-])c1 | inactive: 13.9%
CCOP1(=S)c2c(C)nn(CCC#N)c2N=C(c2ccc(F)cc2)N1C (stereo unspecified) | inactive: -2.82%
CCOP1(=S)c2c(C)nn(CCC#N)c2N=C(c2ccccc2F)N1C (stereo unspecified) | inactive: -7.65%
O=P(Nc1nccs1)(Oc1ccccc1)Oc1ccccc1 | inactive: 4.32%
O=P(Nc1nccs1)(c1ccccc1)c1nc2ccccc2s1 (stereo unspecified) | inactive: -5.02%
CN1CCCCC1COC(=O)C1(O)c2ccccc2CCc2ccccc21 (stereo unspecified) | inactive: -0.85%
COc1ccccc1OP(C)(=O)Nc1c(C)cccc1C (stereo unspecified) | inactive: 15.2%
O=P1(Nc2ncccn2)COc2ccccc2OC1 | inactive: 9.12%
Cc1ccc(OCC(=O)OC2CN3CCC2CC3)cc1 (stereo unspecified) | inactive: 3.54%
O=P1(Nc2ccc(Br)cn2)COc2ccccc2OC1 | inactive: -0.44%
CCCOc1ccc(NP(C)(=O)Oc2ccc(Cl)cc2)cc1 (stereo unspecified) | inactive: 3.82%
CP(=O)(Nc1ccc(SC(F)(F)F)cc1)Oc1ccccc1 (stereo unspecified) | inactive: 18%
COc1cc(C2NCCC3(OCCO3)C2(C)C)cc(OC)c1OC.O=[N+]([O-])c1cc([N+](=O)[O-])c(O)c([N+](=O)[O-])c1 (stereo unspecified) | inactive: 25.3%
